The record followed here is patent US20220259284A1, “CA2 COMPOSITIONS AND METHODS FOR TUNABLE REGULATION” (Obsidian Therapeutics, Inc., priority 2019, published 2022).

This test has as its system CD40L constructs regulated by Carbonic anhydrase DDs in T cells. Kind of test: Acetazolamide dose response of CD40L expression in transduced T cells, FACS (MFI, % CD40L positive). The format is cell-based, human. As to conditions: CD4+ T cells, Acetazolamide 0.05 μM, 24 hours. As to the method: CD40L constructs regulated by Carbonic anhydrase DDs were generated and cloned into lentiviral vectors. Purified T cells were thawed and cultured with aCD3 aCD28 Dynabeads (in the ratio of 3 beads to 1 T cell).
The constructs were transduced in T cells the next day. […] 24 hours after the addition of ligand T cells were stained for CD40L expression and analyzed using FACS.

For `CC(=O)Nc1nnc(S(N)(=O)=O)s1` [Acetazolamide], the “CD40L MFI” value stood at 123.
